Results: US10035777B2, “Heterocyclic kinase inhibitors” (priority 2014, dated 2018)

Chains of the proteins cited; added tags and fusions are not shown. Lines headed by an entry give the natural chain unless they say otherwise; changes in a name come on top.
UniProt Q2M2I8: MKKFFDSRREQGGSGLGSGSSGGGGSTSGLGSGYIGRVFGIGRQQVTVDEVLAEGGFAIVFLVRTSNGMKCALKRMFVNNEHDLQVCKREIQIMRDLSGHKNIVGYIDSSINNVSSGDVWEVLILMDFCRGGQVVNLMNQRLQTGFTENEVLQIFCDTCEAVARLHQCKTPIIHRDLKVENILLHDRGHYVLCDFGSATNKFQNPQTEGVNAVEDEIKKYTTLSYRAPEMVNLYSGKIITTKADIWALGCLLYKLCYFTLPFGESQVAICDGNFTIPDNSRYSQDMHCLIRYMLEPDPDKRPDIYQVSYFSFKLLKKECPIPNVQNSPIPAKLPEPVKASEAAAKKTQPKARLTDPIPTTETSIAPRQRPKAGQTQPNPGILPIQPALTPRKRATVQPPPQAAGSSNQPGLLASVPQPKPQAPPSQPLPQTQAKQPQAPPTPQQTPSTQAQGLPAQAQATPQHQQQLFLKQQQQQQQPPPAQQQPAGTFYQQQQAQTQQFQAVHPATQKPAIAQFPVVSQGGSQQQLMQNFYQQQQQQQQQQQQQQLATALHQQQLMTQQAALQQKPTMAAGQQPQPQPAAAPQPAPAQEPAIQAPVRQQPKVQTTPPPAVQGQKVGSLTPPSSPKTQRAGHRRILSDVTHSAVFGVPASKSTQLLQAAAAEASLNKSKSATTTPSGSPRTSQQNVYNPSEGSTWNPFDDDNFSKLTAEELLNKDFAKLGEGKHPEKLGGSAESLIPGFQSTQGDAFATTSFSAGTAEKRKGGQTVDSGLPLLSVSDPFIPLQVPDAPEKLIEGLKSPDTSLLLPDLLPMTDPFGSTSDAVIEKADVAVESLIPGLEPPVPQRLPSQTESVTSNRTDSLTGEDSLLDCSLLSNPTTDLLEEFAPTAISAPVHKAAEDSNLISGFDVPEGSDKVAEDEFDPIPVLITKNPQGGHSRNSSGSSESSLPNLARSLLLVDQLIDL

Target: GST-Xa-hAAK1 (Homo sapiens (Human), UniProt Q2M2I8)
Test: biochemical
Procedure: The assays were performed in U-bottom 384-well plates. […] The reactions were initiated by the combination of bacterially expressed, GST-Xa-hAAK1 with substrates and test compounds. The reactions were incubated at room temperature for 3 hours and terminated by adding 60 μl of 35 mM EDTA buffer to each sample. The reactions were analyzed on the Caliper LabChip 3000 (Caliper, Hopkinton, Mass.) by electrophoretic separation of the fluorescent substrate and phosphorylated product. […] Compounds were dissolved at 10 mM in dimethylsulfoxide (DMSO) and evaluated at eleven concentrations. IC50 values were derived by non-linear regression analysis.

Structure (SMILES): CN[C@@H](c1nc2cc(-c3ccncc3)ccc2[nH]1)C1CCCCC1 [Example 60, (R)-1-Cyclohexyl-N-methyl-1-(5-(pyridin-4-yl)-1H-benzo[d]imidazol-2-yl)methanamine]
- IC50: 8 nM
